Results: article PMC8515052, “PepVAE: Variational Autoencoder Framework for Antimicrobial Peptide Generation and Activity Prediction” (Frontiers in Microbiology, 2021)

How the values were obtained:
Conditions in all cases: broth dilution, Mueller Hinton II Broth, approx. 5×10^5 CFU/ml, 37°C 24 h, OD600, peptide 128 to 0.5 μM
[1] = system: E. coli K-12
[2] = system: P. aeruginosa 27853
[3] = system: S. aureus ATCC 12600

CC[C@H](C)[C@H](NC(=O)[C@H](CC(C)C)NC(=O)[C@@H](NC(=O)[C@H](CCCNC(=N)N)NC(=O)[C@H](CCCCN)NC(=O)[C@H](CCCNC(=N)N)NC(=O)[C@H](CCCCN)NC(=O)[C@H](CCCNC(=N)N)NC(=O)[C@H](CCCCN)NC(=O)[C@H](CCCNC(=N)N)NC(=O)[C@H](CCCCN)NC(=O)[C@H](CC(C)C)NC(=O)[C@@H](NC(=O)[C@@H](N)CC(C)C)[C@@H](C)CC)[C@@H](C)CC)C(=O)O [p6]
Escherichia coli experimental MIC [1]: 64 µM | Pseudomonas aeruginosa experimental MIC [2]: 128 µM | Staphylococcus aureus experimental MIC [3]: >128 µM

CC[C@H](C)[C@H](NC(=O)[C@H](Cc1ccccc1)NC(=O)[C@H](CC(C)C)NC(=O)[C@H](CCCNC(=N)N)NC(=O)[C@@H](NC(=O)[C@H](CCCCN)NC(=O)[C@@H](NC(=O)[C@H](CC(C)C)NC(=O)[C@@H](N)C(C)C)[C@@H](C)CC)[C@@H](C)O)C(=O)N[C@@H](CCCCN)C(=O)N[C@@H](CCCNC(=N)N)C(=O)N[C@@H](CCCCN)C(=O)O [p2]
Escherichia coli experimental MIC [1]: 64 µM | Pseudomonas aeruginosa experimental MIC [2]: 8 µM | Staphylococcus aureus experimental MIC [3]: >128 µM

CC[C@H](C)[C@H](NC(=O)[C@H](CC(C)C)NC(=O)[C@@H]1CCCN1C(=O)[C@H](CCCCN)NC(=O)[C@H](C)NC(=O)[C@@H](NC(=O)[C@@H](NC(=O)[C@@H](NC(=O)[C@@H](NC(=O)[C@H](CCCCN)NC(=O)[C@H](CCCCN)NC(=O)[C@H](C)NC(=O)[C@H](C)NC(=O)[C@H](CO)NC(=O)[C@@H](NC(=O)[C@H](CC(C)C)NC(=O)[C@H](CCCCN)NC(=O)[C@H](CCCCN)NC(=O)[C@@H](NC(=O)[C@H](Cc1ccccc1)NC(=O)[C@H](CO)NC(=O)[C@H](CCCCN)NC(=O)[C@H](Cc1c[nH]c2ccccc12)NC(=O)[C@@H](N)CCCCN)[C@@H](C)CC)[C@@H](C)O)C(C)C)C(C)C)[C@@H](C)O)[C@@H](C)O)C(=O)N[C@@H](CO)C(=O)N[C@@H](CO)C(=O)O [p26]
Escherichia coli experimental MIC [1]: 4 µM | Pseudomonas aeruginosa experimental MIC [2]: 4 µM | Staphylococcus aureus experimental MIC [3]: >128 µM
